Literature values, collected in patent US20160194683A1, “Gas Biosensors” (priority 2013, published 2016).

Amino acid sequences for entries named in this document (tags omitted). A change or cut given only in a name is not applied to a line headed by its entry.
UniProt P06134: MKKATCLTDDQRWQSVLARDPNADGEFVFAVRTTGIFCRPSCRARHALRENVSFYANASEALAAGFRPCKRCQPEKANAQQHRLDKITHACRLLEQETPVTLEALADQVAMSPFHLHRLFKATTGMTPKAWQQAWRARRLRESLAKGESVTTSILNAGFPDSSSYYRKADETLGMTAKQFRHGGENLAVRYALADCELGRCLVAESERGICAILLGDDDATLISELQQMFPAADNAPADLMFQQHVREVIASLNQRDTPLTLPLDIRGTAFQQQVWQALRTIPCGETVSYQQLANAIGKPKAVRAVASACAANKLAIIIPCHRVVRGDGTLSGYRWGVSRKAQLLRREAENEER
UniProt P20047: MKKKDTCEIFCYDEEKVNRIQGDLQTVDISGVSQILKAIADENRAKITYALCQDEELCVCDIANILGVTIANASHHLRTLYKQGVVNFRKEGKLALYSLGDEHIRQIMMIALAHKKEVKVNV
UniProt P0ACQ4: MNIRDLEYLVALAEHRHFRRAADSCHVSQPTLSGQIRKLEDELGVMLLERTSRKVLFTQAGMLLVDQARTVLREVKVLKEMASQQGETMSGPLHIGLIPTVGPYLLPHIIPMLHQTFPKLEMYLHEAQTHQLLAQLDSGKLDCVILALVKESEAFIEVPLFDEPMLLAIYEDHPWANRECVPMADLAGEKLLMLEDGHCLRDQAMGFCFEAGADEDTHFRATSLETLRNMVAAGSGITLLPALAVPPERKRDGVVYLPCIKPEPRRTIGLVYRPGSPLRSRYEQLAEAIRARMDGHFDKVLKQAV

What was measured:
[1] = biological target: Ada of E. coli (Escherichia coli, UniProt P06134); settings: host E. coli; alkAp-luxCDABE; DNA-alkylating agents; cited from earlier work
[2] = tested on: RecA-LexA of E. coli; settings: host E. coli; cdap-gfp; cited from earlier work
[3] = tested on: Pptcal (CO2 responsive promoter of the chloroplastic carbonic anhydrase gene); settings: P. tricornutum transformants; cited from earlier work
[4] = biological target: CadC of Staphylococcus aureus (Staphylococcus aureus, UniProt P20047); settings: host Bacillus subtilis; cadCp-lucFF; cited from earlier work
[5] = biological target: OxyR of E. coli (Escherichia coli, UniProt P0ACQ4); settings: host E. coli; katGp-luxCDABE; intracellular production of oxygen radicals; cited from earlier work
[6] = tested on: MerR of E. coli; settings: host E. coli; merTp-luxCDABE; cited from earlier work

Q: With CN(N=O)C(=N)N[N+](=O)[O-] as the compound, how does the Detection sensitivity [1] read?
A: 70 nM N-methyl-

Q: What about the Detection sensitivity [2] of the same compound?
A: 5 nM N-methyl-

Q: Which “GUS expression in air (about 0.04% CO2) relative to cells grown in 5% CO2” value [3] does the source give for CO2 here?
A: about 10 fold

Q: Which Detection sensitivity [4] does the source give for Cd^2+ here?
A: 3 nM

Q: For H2O2, which Detection sensitivity [5] is on record?
A: 3 μM H2O2,

Q: Which Detection sensitivity [6] does the source give for Hg^2+ here?
A: 1 nM
